From ChEMBL document CHEMBL1139472, “Synthesis of N-{4-[(2,4-diamino-5-methyl-4,7-dihydro-3H-pyrrolo[2,3-d]pyrimidin-6-yl)thio]benzoyl}-L-glutamic acid and N-{4-[(2-amino-4-oxo-5-methyl-4,7-dihydro-3H-pyrrolo[2,3-d]pyrimidin-6-yl)thio]benzoyl}-L-glutamic acid as dual inhibitors of dihydrofolate reductase and thymidylate synthase and …” (J Med Chem, 2005)

Columns and labels:
[1] = molecular target: T1, Bifunctional dihydrofolate reductase-thymidylate synthase (Toxoplasma gondii, UniProt Q07422)
T1 sequence (Q07422 whole entry): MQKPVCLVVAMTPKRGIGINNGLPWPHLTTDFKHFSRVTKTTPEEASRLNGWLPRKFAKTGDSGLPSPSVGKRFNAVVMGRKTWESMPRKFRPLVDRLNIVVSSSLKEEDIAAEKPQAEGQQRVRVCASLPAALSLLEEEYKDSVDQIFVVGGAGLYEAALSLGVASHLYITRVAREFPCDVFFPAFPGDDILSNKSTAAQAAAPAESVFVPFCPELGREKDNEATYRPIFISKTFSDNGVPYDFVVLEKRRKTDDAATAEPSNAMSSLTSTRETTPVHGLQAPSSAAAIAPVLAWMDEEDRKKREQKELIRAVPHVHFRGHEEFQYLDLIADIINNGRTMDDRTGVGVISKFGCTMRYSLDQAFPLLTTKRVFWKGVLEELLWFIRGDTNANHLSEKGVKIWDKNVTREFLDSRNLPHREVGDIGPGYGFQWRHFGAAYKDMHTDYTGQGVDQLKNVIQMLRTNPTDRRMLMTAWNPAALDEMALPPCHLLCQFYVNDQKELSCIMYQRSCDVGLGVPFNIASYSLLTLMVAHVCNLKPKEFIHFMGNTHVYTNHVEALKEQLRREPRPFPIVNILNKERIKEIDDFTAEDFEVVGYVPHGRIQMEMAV

[2] = molecular target: Dihydrofolate reductase (Homo sapiens, UniProt P00374)

| Structure (SMILES) | IC50 [1] [nM] | IC50 [2] [nM] |
| --- | --- | --- |
| Cc1nc2ccc(CN(C)c3ccc(C(=O)N[C@@H](CCC(=O)O)C(=O)O)s3)cc2c(=O)[nH]1 [RALTITREXED] | 900 | – |
| Nc1nc2[nH]cc(CCc3ccc(C(=O)N[C@@H](CCC(=O)O)C(=O)O)cc3)c2c(=O)[nH]1 [PEMETREXED] | – | 1500 |
